Patent US20240245770A1, “COMPOSITIONS AND METHODS FOR TREATING NEUROMUSCULAR DISORDERS” (The Regents of the University of California, priority 2019, published 2024)

What was measured:
Purified CD8+ T cells = experiment: CD8 ELISA, IFN-γ secretion; assay type: cell-based, human
Method: (§1) CD8 ELISA. CD8+ T cells were isolated from PBMC following manufacturer's instruction. Purified CD8+ T cells were left untreated, treated with IL-2 (1000 U/mL) or treated with the combination of IL-2 and anti-CD3/28 mAb (25 μl/ml) or IL-2+sAJ2 (Cells:sAJ2 1:20). After an overnight treatment at 37° C., the supernatants were harvested and the levels of IFN-γ secretion were measured using ELISA (Table 32).
PBMC ELISA. CD8+ T cells were isolated from PBMC following manufacturer's instruction and they were left untreated, treated with IL-2 (1000 U/mL) or treated with the combination of IL-2+anti-CD3/28 antibodies (25 μl/mL) or IL-2+sAJ2 (Cells:sAJ2 1:20). After an overnight treatment at 37° C., the supernatants were harvested and the levels of IFN-γ secretion were measured using ELISA (Table 39).
as §1, with “Elisa.” for “ELISA.”, “46).” for “32).”

Purified NK cells = experiment: NK ELISA, IFN-γ secretion by purified NK cells; assay type: cell-based, human; settings: for IFN-γ secretion by the NK cells, Mean: Table 205
Method: Human ELISA kits for IFN-γ and IL-6 were purchased from Biolegend (San Diego, CA). The assay was conducted as recommended by the manufacturer. For certain experiments multiplex arrays were used to determine the levels of secreted cytokines and chemokines. Analysis was performed using MAGPIX (Millipore, MA) and data was analyzed using xPONENT 4.2.
as §1, with “NK” for “CD8”, “NK” for “CD8+ T”, “anti-CD16” for “anti-CD3/28”, “(3 μg/ml)” for “(25 μl/ml)”, “21).” for “32).”

Recombinant human IL-2
IFN-γ secretion, ELISA, Mean (Purified CD8+ T cells; CD8 (1:5) of P113 HA, overnight treatment at 37° C.): 68.2 | IFN-γ secretion, ELISA, CD8 1:5 Mean (Purified CD8+ T cells; CD8 of H102 JC, overnight treatment): 232.20 | IFN-γ secretion, ELISA, CD8 1:5 Mean (Purified CD8+ T cells; CD8 of H103 TC, overnight treatment): 145.85 | IFN-γ secretion, ELISA, CD8 1:5 Mean (Purified CD8+ T cells; CD8 of H104 RS, overnight treatment): 278.44 | IFN-γ secretion (ELISA) (Purified CD8+ T cells; CD8 straight, H131 JC, overnight treatment at 37° C.): 64.48 | IFN-γ secretion (ELISA) (Purified CD8+ T cells; CD8 straight, H132 TC, overnight treatment at 37° C.): 4.18 | IFN-γ secretion (ELISA) (Purified CD8+ T cells; CD8 straight, H133 WO, overnight treatment at 37° C.): 72.78 | IFN-γ secretion (ELISA) (Purified CD8+ T cells; H80 DM CD8 (1:5)): 283.94 | IFN-γ secretion (ELISA) (Purified CD8+ T cells; H81 JC (ALS) CD8 (1:5)): 476.90 | IFN-γ secretion (ELISA) (Purified CD8+ T cells; H82 TC (healthy twin) CD8 (1:5)): 84.00 | IFN-γ secretion (ELISA) (Purified CD8+ T cells; H84 JC CD8, Day1, 1:8 dilution): 55.59 | IFN-γ secretion (ELISA) (Purified CD8+ T cells; H84 JC CD8, Day4, 1:8 dilution): 222.88 | IFN-γ secretion (ELISA) (Purified CD8+ T cells; H85 TC CD8, Day1, 1:8 dilution): 193.24 | IFN-γ secretion (ELISA) (Purified CD8+ T cells; H85 TC CD8, Day4, 1:8 dilution): 437.00 | IFN-γ secretion (ELISA) (Purified CD8+ T cells; H88 JC CD8, Day1, 1:8 dilution): 312.43 | IFN-γ secretion (ELISA) (Purified CD8+ T cells; H88 JC CD8, Day4, 1:8 dilution): 386.48 | IFN-γ secretion (ELISA) (Purified CD8+ T cells; H88 JC CD8, Day10, 1:8 dilution): 452.22 | IFN-γ secretion (ELISA) (Purified CD8+ T cells; H88 JC CD8, Day12, 1:8 dilution): 567.09 | IFN-γ secretion (ELISA) (Purified CD8+ T cells; H89 TC CD8, Day1, 1:8 dilution): 497.89 | IFN-γ secretion (ELISA) (Purified CD8+ T cells; H89 TC CD8, Day4, 1:8 dilution): 618.99 | IFN-γ secretion (ELISA) (Purified CD8+ T cells; H89 TC CD8, Day10, 1:8 dilution): 769.15 | IFN-γ secretion (ELISA) (Purified CD8+ T cells; H89 TC CD8, Day12, 1:8 dilution): 663.28 | IFN-γ secretion (ELISA) (Purified CD8+ T cells; H115 JC CD8 (1:10), overnight treatment): 204.4 | IFN-γ secretion (ELISA) (Purified CD8+ T cells; H116 TC CD8 (1:10), overnight treatment): 414.4 | IFN-γ secretion, ELISA, Mean (Purified CD8+ T cells; H117 JC CD8, 1:5 dilution, overnight treatment): 310.37 | IFN-γ secretion, ELISA, Mean (Purified CD8+ T cells; H117.1 JC (1:5), overnight treatment, Table 108): 331.90 | IFN-γ secretion, ELISA, Mean (Purified CD8+ T cells; H117.1 JC (1:10), overnight treatment, Table 108): 229.45 | IFN-γ secretion, ELISA, Mean (Purified CD8+ T cells; H118 TC CD8, 1:5 dilution, overnight treatment): 239.40 | CD8, Mean (Table 118A) (Purified CD8+ T cells; H120 JC CD8, 1:5): 140.63 | CD8, Mean (Table 118A) (Purified CD8+ T cells; H121 TC CD8, 1:5): 40.68 | CD8, Mean (Table 118A) (Purified CD8+ T cells; H122 MV CD8, 1:5): 152.29 | IFN-γ secretion, ELISA, Mean (Purified CD8+ T cells; H143 JC CD8, 1:5, overnight treatment at 37° C.): 46.1 | IFN-γ secretion, ELISA, Mean (Purified CD8+ T cells; H144 TC CD8, 1:5, overnight treatment at 37° C.): 6.2 | IFN-γ secretion, ELISA, Mean (Purified CD8+ T cells; H145 WO CD8, 1:5, overnight treatment at 37° C.): 8.1 | IFN-γ secretion, Mean (Purified CD8+ T cells; H160 JC CD8 (1:5)): 28.37 | IFN-γ secretion, Mean (Purified CD8+ T cells; H161 TC CD8 (1:5)): 9.77 | IFN-γ secretion, Mean (Purified CD8+ T cells; H162 WO CD8 (1:5)): 76.50 | IFN-γ release (Purified CD8+ T cells; H169 JC CD8 (1:5), ALS): 316.25 | IFN-γ release (Purified CD8+ T cells; H170 TC CD8 (1:5), control twin): 19.64 | IFN-γ release (Purified CD8+ T cells; H171 JC CD8 (1:5), ALS): 0.00 | IFN-γ release (Purified CD8+ T cells; H172 TC CD8 (1:5), control twin): 3.47 | IFN-γ release (Purified CD8+ T cells; H174 JC CD8 (1:5), ALS): 0.00 | IFN-γ release (Purified CD8+ T cells; H175 TC CD8 (1:5), control twin): 0.00 | IFN-γ secretion, Mean (Purified CD8+ T cells; H184 JC CD8 (1:5), Table 193): 0.00 | IFN-γ secretion, Mean (Purified CD8+ T cells; H185 TC CD8 (1:5), Table 193): 0.00 | IFN-γ secretion, Mean (Purified CD8+ T cells; H186 JC CD8 (1:5), Table 198): 0.00 | IFN-γ secretion (Purified CD8+ T cells; H186 JC CD8 straight, Table 199): 0 | IFN-γ secretion, Mean (Purified CD8+ T cells; H187 TC CD8 (1:5), Table 198): 0.00 | IFN-γ secretion (Purified CD8+ T cells; H187 TC CD8 straight, Table 199): 0 | IFN-γ secretion, Mean (Purified CD8+ T cells; H190 RS CD8 (1:5), Table 198): 0.00 | IFN-γ secretion (Purified CD8+ T cells; H190 RS CD8 straight, Table 199): 0 | IFN-γ secretion, Mean (Purified CD8+ T cells; H194 JC CD8 (1:5), Table 206): 0.00 | IFN-γ secretion (Purified CD8+ T cells; H194 JC CD8 straight, Table 207): 0.00 | IFN-γ secretion (Purified CD8+ T cells; H195 RS CD8 straight, Table 207): 0.00 | IFN-γ secretion, Mean (Purified CD8+ T cells; H196 TC CD8 (1:5), Table 206): 0.00 | IFN-γ secretion (Purified CD8+ T cells; H196 TC CD8 straight, Table 207): 20.12 | IFN-γ secretion, Mean (Purified CD8+ T cells; H202 JC CD8 (1:5), Table 221): 0.00 | IFN-γ secretion (Purified CD8+ T cells; H203 JC CD8 straight, Table 222): 0.00 | IFN-γ secretion, Mean (Purified CD8+ T cells; H203 TC CD8 (1:5), Table 221): 0.00 | IFN-γ secretion (Purified CD8+ T cells; H204 TC CD8 straight, Table 222): 0.00 | IFN-γ secretion, Mean (Purified CD8+ T cells; H206 JC CD8 (1:5), with or without PTX, Table 226): 0.00 | IFN-γ secretion (Purified CD8+ T cells; H206 JC CD8 straight, with or without PTX, Table 227): 19.89 | IFN-γ secretion, Mean (Purified CD8+ T cells; H209 TS CD8 (1:5), with or without PTX, Table 226): 0.00 | IFN-γ secretion (Purified CD8+ T cells; H209 TS CD8 straight, with or without PTX, Table 227): 57.53 | IFN-γ secretion, Mean (Purified CD8+ T cells; H211 JC CD8 (1:5)): 0.00 | IFN-γ secretion (Purified CD8+ T cells; H211 JC CD8 straight): 44.81 | IFN-γ secretion, Mean (Purified CD8+ T cells; H212 TC CD8 (1:5)): 0.00 | IFN-γ secretion (Purified CD8+ T cells; H212 TC CD8 straight): 31.21 | IFN-γ secretion, Mean (Purified CD8+ T cells; H213 JC CD8 (1:5)): 19.87 | IFN-γ secretion (Purified CD8+ T cells; H213 JC CD8 straight): 25.92 | IFN-γ secretion, Mean (Purified CD8+ T cells; H214 TC CD8 (1:5)): 2.53 | IFN-γ secretion (Purified CD8+ T cells; H214 TC CD8 straight): 15.27 | IFN-γ secretion (ELISA) (Purified NK cells; H65 SM NK, (1:5)): 24.6 | IFN-γ secretion (ELISA) (Purified NK cells; H66 JC (ALS) NK, (1:5)): 137.4 | IFN-γ secretion (ELISA) (Purified NK cells; H70 JC (ALS) NK (1:5)): 1478.8 | IFN-γ secretion (ELISA) (Purified NK cells; H80 DM NK alone, 1:5 dilution): 228.72 | IFN-γ secretion (ELISA) (Purified NK cells; H81 JC (ALS) NK alone, 1:5 dilution): 400.84 | IFN-γ secretion (ELISA) (Purified NK cells; H82 TC (healthy twin) NK alone, 1:5 dilution): 337.43 | IFN-γ secretion (ELISA) (Purified NK cells; H84 JC NK alone, 1:8 dilution): 248.16 | IFN-γ secretion (ELISA) (Purified NK cells; H85 TC NK alone, 1:8 dilution): 342.10 | IFN-γ secretion (ELISA) (Purified NK cells; H117 JC NK, straight, overnight treatment): 496.896 | IFN-γ secretion (ELISA) (Purified NK cells; H118 TC NK, straight, overnight treatment): 406.875 | IFN-γ release (Purified NK cells; H171 JC NK (1:5), ALS): 157.01 | IFN-γ release (Purified NK cells; H172 TC NK (1:5), control twin): 27.63 | IFN-γ release (Purified NK cells; H174 JC NK (1:5), ALS): 20.15 | IFN-γ release (Purified NK cells; H175 TC NK (1:5), control twin): 608.98 | IFN-γ secretion by the NK cells, Mean (Purified NK cells; H195 RS NK (1:5)): 0.00 | IFN-γ secretion by the NK cells, Mean (Purified NK cells; H196 TC NK (1:5)): 0.00 | IFN-γ secretion, Mean (Purified NK cells; H211 JC NK (1:5)): 6.33 | IFN-γ secretion (Purified NK cells; H211 JC NK straight): 102.81 | IFN-γ secretion, Mean (Purified NK cells; H212 TC NK (1:5)): 0.00 | IFN-γ secretion (Purified NK cells; H212 TC NK straight): 29.51 | IFN-γ secretion, Mean (Purified NK cells; H213 JC NK (1:5)): 29.09 | IFN-γ secretion (Purified NK cells; H213 JC NK straight): 26.07 | IFN-γ secretion, Mean (Purified NK cells; H214 TC NK (1:5)): 0.00 | IFN-γ secretion (Purified NK cells; H214 TC NK straight): 22.45 | IFN-γ secretion, ELISA, NK1:5 Mean (Purified NK cells; NK of H102 JC, overnight treatment): 121.79 | IFN-γ secretion, ELISA, NK1:5 Mean (Purified NK cells; NK of H103 TC, overnight treatment): 73.19 | IFN-γ secretion, ELISA, NK1:5 Mean (Purified NK cells; NK of H104 RS, overnight treatment): 97.72 | IFN-γ secretion (ELISA) (Purified NK cells; P65 LP NK, (1:5)): 56.2 | IFN-γ secretion (ELISA) (Purified NK cells; P82 SS NK alone, 1:5 dilution): 526.84 | IFN-γ secretion, ELISA, Mean (Purified NK cells; P113 HA NK, Straight, overnight treatment at 37° C.): 0.00
